Chains of the proteins cited; added tags and fusions are not shown. Residues count along the entry.
UniProt P14174, 2-115 limits assumed: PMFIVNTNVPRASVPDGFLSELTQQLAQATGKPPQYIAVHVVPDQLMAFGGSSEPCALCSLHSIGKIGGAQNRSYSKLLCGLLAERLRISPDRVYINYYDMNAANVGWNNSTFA

In US20220144838A1, “Compounds as Inhibitors of Macrophage Migration Inhibitory Factor” (NANJING IMMUNOPHAGE BIOTECH CO., LTD., priority 2019, published 2022):

Molecular target: MIF (Homo sapiens, UniProt P14174)
Test: MIF tautomerase assay using pHPP as substrate
Settings: inhibition of the MIF enzyme in vitro; mean of multiple test results
Experimental: Tautomerase Assay Using pHPP as Substrate
This assay measured MIF's tautomerase activity in a cell-free system and was based on the determination of initial rates of the MIF-catalyzed conversion of the ketonic into the enolic tautomer of pHPP. This was achieved by spectrophotometric quantification of the complex between borate and the product of the reaction (enolic pHPP). The substrate was prepared by conversion of the enolic pHPP into its ketonic form. To achieve this, 0.5 M pHPP in methanol was diluted 10-fold with 50 mM sodium acetate buffer at pH 6.0, and then the suspension was shaken for 24 h at room temperature in darkness, and finally stored at 4° C. for not more than 1 week, with 5 min sonication being recommended before use.
Assays were performed in small-volume clear-bottom black 96 or 384-well polystyrene plates (Greiner Bio-One). First, 2 μL of the enzyme solution containing 6 nM of MIF in DPBS, 0.025% w/v BSA, and 300 μM CHAPS was dispensed onto sample and negative control wells using Multidrop Combi with metallic tip cassettes (Thermo Fisher Scientific) previously treated with Sigmacote. Then, 2 μL of the same buffer without MIF was dispensed onto positive control wells. […] Then, the plate was read in an EnVision. […] Initial rates were calculated for each well as the slope of the absorbance progress curve. […]

With COc1nc(Cl)ccc1-n1cnc2c(N)nc(N3CCN(c4ccc(O)cc4)CC3)nc21 the “Tautomerase Inhibition pIC50” value was “B (B means 5.01 to 6)”.
